Our source for the activation values is PubChem BioAssay AID687014 (The Scripps Research Institute Molecular Screening Center, 2013).

This is a selection; strong and weak results do not stand in their true shares. Some salts and complexes are drawn in separate pieces, as the source files them; their charges need not balance. The source made the active and inactive calls.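 How the source made its calls: active means activation above a cutoff set at the mean of all screened compounds plus 3 SD (cut at about 10% in these data); inactive means the rest.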

In the experiment the test system is Nuclear hormone receptor DAF-12 (Heterodera glycines), GAL4 fusion. The experiment is described as follows: hgDAF-12 GAL4 fusion reporter activation – cell-based, luminescence, HEK293, UAS-luciferase, primary screen (AID 687014).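 Further: 0% = DMSO wells and 100% = sodium butyrate wells.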 Particulars: HEK293 GAL4-hgDAF12 UAS-luciferase reporter, agonist luminescence; at 6.8 µM; active compounds read high; normalized to butyrate control. In general terms: Reporter assays use an easily measured gene product as a stand-in for the process of interest.
Consider `CCOC(=O)c1ccc(NP(C)(=O)Oc2ccc(F)cc2)cc1` (centres undefined), for which the activation was inactive: -3.73%.

For the molecule `COc1ccc(OP(C)(=O)Nc2ccc(SC(F)(F)F)cc2)cc1` (centres undefined), the activation is inactive: -5.6%.

As to `CCN(CC)CCCNc1ccccc1[N+](=O)[O-].O=[N+]([O-])c1cc([N+](=O)[O-])c(O)c([N+](=O)[O-])c1`, the activation was inactive: 1.41%.

Take `CP(=O)(Nc1ccccc1)Oc1ccc(F)cc1` (centres undefined): the activation was inactive: 2.64%.

For the molecule `O=[N+]([O-])c1cc([N+](=O)[O-])c(OC2CCCCC2O)c([N+](=O)[O-])c1` (centres undefined), the activation was inactive: 0.17%.

Regarding `CCCCCOc1ccc(NP(C)(=O)Oc2ccc(Cl)cc2Cl)cc1` (centres undefined), the activation is inactive: 0.19%.

For `Cc1c([N+](=O)[O-])cc([N+](=O)[O-])c(Br)c1[N+](=O)[O-]`, the activation was inactive: -0.2%.

For `CCN(CC)CCCOC(=O)C(O)(c1ccccc1)C1CCCCC1` (centres undefined), the activation was inactive: -1.48%.

`CP(=O)(Nc1ccccc1F)Oc1ccccc1` (centres undefined): the activation was inactive: 4.47%.

Consider `CC(C)c1ccc(OP(C)(=O)Nc2ccc(SC(F)(F)F)cc2)cc1` (centres undefined), for which the activation is inactive: -0.98%.

Take `O=[N+]([O-])c1cc([N+](=O)[O-])c(Nc2ccc(Cl)cc2)c([N+](=O)[O-])c1`: the activation was inactive: -1.84%.

On to `COc1ccc2c(c1O)-c1c(O)c(OC)cc3c1[C@H](C2)[N+](C)(C)CC3.O=[N+]([O-])c1cc([N+](=O)[O-])c([O-])c([N+](=O)[O-])c1[O-]`, for which the activation is inactive: 0.13%.

For `O=C(OC1CN2CCC1CC2)c1ccc([N+](=O)[O-])cc1` (centres undefined), the activation is inactive: 0.02%.

In the case of `O=C(OCCN1CCN(CCOCc2ccccc2)CC1)C(O)(c1ccccc1)c1ccccc1`, the activation is inactive: 0.12%.

As to `CCOP(C)(=S)SCC(=O)NC(C)(CC)C(=O)O` (centres undefined), the activation is inactive: 0.68%.

For the molecule `CCOP(=O)(CC)OCC`, the activation is inactive: -0.84%.

For `CP(=O)(Nc1ccc(SC(F)(F)F)cc1)Oc1ccc(F)cc1` (centres undefined), the activation was inactive: -2.45%.

In the case of `Cc1ccccc1NP(C)(=O)Nc1ccccc1C`, the activation was inactive: -1.52%.

Consider `O=[N+]([O-])c1cc([N+](=O)[O-])c(C(F)(F)F)c([N+](=O)[O-])c1O`, for which the activation is inactive: -3.33%.

`CP(=O)(Nc1ccc2c(c1)OCCO2)Oc1ccccc1` (centres undefined): the activation was inactive: -2.97%.

`CN(C)CCOC(=O)C(O)(c1ccccc1)C1CCCCC1` (centres undefined): the activation was inactive: -1.19%.

Turning to `COc1ccc(NP(C)(=O)Oc2ccccc2OC)cc1` (centres undefined), the activation is inactive: 4.03%.

Consider `COc1ccc(OP(C)(=O)Nc2cccc(Br)c2)cc1` (centres undefined), for which the activation is inactive: -3.23%.

In the case of `Cc1c(C(c2ccc3c(c2)OCO3)c2c(C)n(C)n(-c3ccccc3)c2=O)c(=O)n(-c2ccccc2)n1C.O=[N+]([O-])c1cc([N+](=O)[O-])c(O)c([N+](=O)[O-])c1`, the activation is inactive: -1.7%.

In the case of `O=[N+]([O-])c1ccc(OP2(=O)COCCO2)cc1` (centres undefined), the activation is inactive: 0.91%.

For the molecule `O=[N+]([O-])c1cc([N+](=O)[O-])c(NCC2CCS(=O)(=O)C2)c([N+](=O)[O-])c1` (centres undefined), the activation was inactive: 0.43%.

Consider `Cc1cc(-c2cccc3ccccc23)c(C)cn1.O=[N+]([O-])c1cc([N+](=O)[O-])c(O)c([N+](=O)[O-])c1`, for which the activation was inactive: -2.07%.

For the molecule `CCOC(=O)c1ccc(NP(C)(=O)Oc2ccc(Cl)cc2)cc1` (centres undefined), the activation is inactive: -0.46%.

In the case of `CP(=O)(OC12CC3CC(CC(C3)C1)C2)OC12CC3CC(CC(C3)C1)C2`, the activation was inactive: -0.89%.

For `Nc1ccc2c(ccc3cccnc32)n1.O=[N+]([O-])c1cc([N+](=O)[O-])c(O)c([N+](=O)[O-])c1`, the activation is inactive: 0.96%.

Regarding `COc1ccccc1OP(C)(=O)Nc1c(C)n(C)n(-c2ccccc2)c1=O` (centres undefined), the activation is inactive: 0.42%.

With `O=C(OCCCN1CCCC1)C(O)(c1ccccc1)C1CCCCC1` (centres undefined), the activation is inactive: -0.5%.

For the molecule `CP(=O)(Oc1ccccc1)N1CCOC1=O` (centres undefined), the activation was inactive: -2.06%.

`CCc1ccc(OP(C)(=O)Nc2cccnc2)cc1` (centres undefined): the activation was inactive: -1.2%.

For the molecule `CCN(CC)CC(O)COC(=O)C(O)(c1ccccc1)C1CCCCC1` (centres undefined), the activation was inactive: -2.06%.

`COc1ccc(OP(C)(=O)Nc2ccc(Br)cc2)cc1` (centres undefined): the activation is inactive: -1.24%.

As to `CN(C)C(=O)c1c([N+](=O)[O-])cc([N+](=O)[O-])cc1[N+](=O)[O-]`, the activation was inactive: -3.62%.

Turning to `COc1ccccc1OP(C)(=O)Nc1ccccc1Br` (centres undefined), the activation was inactive: 0.01%.

In the case of `CC(C)(C)c1ccc(OP(C)(=O)O)cc1`, the activation is inactive: 1.25%.

On to `CP(=O)(Nc1ccc(Cl)cc1)Oc1ccc(F)cc1` (centres undefined), for which the activation was inactive: 0.11%.

Turning to `COc1ccc(OP(C)(=O)Nc2ccccn2)cc1` (centres undefined), the activation is inactive: -0.21%.

On to `CN(C)CCOC(=O)C(O)(c1ccccc1)C1CCCC1` (centres undefined), for which the activation is inactive: -1.25%.

Regarding `COc1ccccc1OP(C)(=O)Nc1ccc(Br)cc1` (centres undefined), the activation was inactive: -1.75%.

`CP(=O)(Nc1ccccn1)Oc1ccccc1` (centres undefined): the activation is inactive: -0.36%.

Turning to `COc1ccccc1OP(C)(=O)Nc1ccc(C)cc1C` (centres undefined), the activation is inactive: 0.34%.

As to `CCc1ccc(OP(C)(=O)O)cc1`, the activation was inactive: 0.86%.

`Cc1c(NP(C)(=O)Oc2ccc(C(C)C)cc2)c(=O)n(-c2ccccc2)n1C` (centres undefined): the activation is inactive: -1.46%.

On to `O=[N+]([O-])c1cc([N+](=O)[O-])c(Nc2ccccn2)c([N+](=O)[O-])c1`, for which the activation was inactive: -4.69%.

Turning to `COc1ccccc1OP(C)(=O)Nc1ccc(C)c(C)c1` (centres undefined), the activation is inactive: -0.03%.

Regarding `COc1ccc(OP(C)(=O)Nc2ccccc2Br)cc1` (centres undefined), the activation was inactive: -2.28%.

In the case of `O=C1C(O)=C([N+](=O)[O-])C(=O)C(O)=C1[N+](=O)[O-]`, the activation was inactive: 1.67%.

In the case of `Cc1cc(C)cc(OP(C)(=O)Nc2cccc(C(F)(F)F)c2)c1` (centres undefined), the activation was inactive: 0.48%.

In the case of `CP(=O)(Nc1ccc(Cl)cc1Cl)Oc1ccccc1` (centres undefined), the activation is inactive: 4.07%.

As for `CCCCCCCCCCCCCCCC1C[N+](C)(C)CCOP(C)(=O)O1` (centres undefined), the activation was inactive: -0.68%.

As for `CP(=O)(OCCOc1ccccc1)OCCOc1ccccc1`, the activation was inactive: -1.29%.

As to `O=[N+]([O-])c1ccc2c(c1)C=Nc1ccccc1O2`, the activation is inactive: 0.92%.

Regarding `CC(C)(C)c1ccc(OP(C)(=O)Nc2ccc(SC(F)(F)F)cc2)cc1` (centres undefined), the activation is inactive: -3.1%.

For the molecule `Cc1cccc(C)c1OP(C)(N)=O` (centres undefined), the activation was inactive: -1.09%.

On to `O=[N+]([O-])c1cc([N+](=O)[O-])c(Nc2cccnc2)c([N+](=O)[O-])c1`, for which the activation is inactive: -0.71%.

As for `Cc1cc(C)cc(OP(C)(N)=O)c1` (centres undefined), the activation was inactive: -0.1%.

For the molecule `COc1ccccc1OP(C)(=O)Nc1cc(Cl)ccc1C` (centres undefined), the activation is inactive: -3.2%.

`COc1ccc(OP(C)(=O)Nc2cccc(F)c2)cc1` (centres undefined): the activation was inactive: 2.63%.

Take `COc1ccccc1OP(C)(=O)Nc1ccc(C)cc1` (centres undefined): the activation was inactive: -1.86%.

As for `Cc1ccc(NP(C)(=O)Oc2ccccc2)c(C)c1` (centres undefined), the activation was inactive: -0.29%.

As to `CCOC(=O)c1ccc(NP(C)(=O)Oc2ccccc2)cc1` (centres undefined), the activation is inactive: -1.09%.

As for `CCN(CC)CCCOC(=O)C(O)(c1ccccc1)c1ccccc1`, the activation is inactive: -1.55%.

Turning to `COc1ccccc1-c1ccccn1.O=[N+]([O-])c1cc([N+](=O)[O-])c(O)c([N+](=O)[O-])c1`, the activation was inactive: 1.09%.

With `CP(=O)(NC(=O)Nc1ccccc1)Oc1ccccc1` (centres undefined), the activation was inactive: 0.95%.

As for `CCc1ccc(OP(C)(=O)N2CCN(c3ccc([N+](=O)[O-])cc3)CC2)cc1` (centres undefined), the activation was inactive: -0.85%.

`Cc1cc(C)cc(OP(C)(=O)Nc2ccc(SC(F)(F)F)cc2)c1` (centres undefined): the activation is inactive: -1.11%.

As for `Cc1cccc(C)c1OP(C)(=O)Nc1ccc(SC(F)(F)F)cc1` (centres undefined), the activation is active: 10.5%.

`CP(=O)(Nc1ccc(SC(F)(F)F)cc1)Oc1ccc(Cl)cc1` (centres undefined): the activation is inactive: -2.3%.

On to `CP(=O)(Oc1ccccc1)OC(c1ccccc1)C(F)(F)F` (centres undefined), for which the activation is inactive: 0.59%.

On to `CP(=O)(Nc1ccccn1)Oc1ccc(Cl)cc1` (centres undefined), for which the activation is inactive: -1.63%.

Take `CCOC(=O)c1ccc(NP(C)(=O)Oc2ccc(OC)cc2)cc1` (centres undefined): the activation was inactive: -1.17%.

In the case of `O=[N+]([O-])c1cc([N+](=O)[O-])c(O)c([N+](=O)[O-])c1.c1ccc(Oc2ccncc2)cc1`, the activation is inactive: 0.41%.

Turning to `CCOP(C)(=S)SCC(=O)NC(C)C(=O)O` (centres undefined), the activation was inactive: -0.43%.

Turning to `CP(=O)(Nc1ccccc1Br)Oc1ccccc1` (centres undefined), the activation is inactive: -1.06%.

For `COc1ccccc1OP(C)(=O)Nc1ccccc1` (centres undefined), the activation is inactive: 1.93%.

As for `CP(=S)(Nn1cnnc1)Oc1ccccc1` (centres undefined), the activation was inactive: -0.26%.

Regarding `O=[N+]([O-])c1cc([N+](=O)[O-])c(Nc2nnnn2CCO)c([N+](=O)[O-])c1`, the activation was inactive: -0.86%.

With `CCOC(=O)C(CC)C1=NC(C)(C)Cc2ccccc21.O=[N+]([O-])c1cc([N+](=O)[O-])c(O)c([N+](=O)[O-])c1` (centres undefined), the activation was inactive: -1.27%.

Regarding `COc1ccc(-c2ccccn2)cc1.O=[N+]([O-])c1cc([N+](=O)[O-])c(O)c([N+](=O)[O-])c1`, the activation was inactive: 5.41%.

For the molecule `CCCOc1ccc(NP(C)(=O)Oc2ccc(Cl)cc2)cc1` (centres undefined), the activation was inactive: 1.81%.

As to `CP(=O)(Nc1ccc(SC(F)(F)F)cc1)Oc1ccccc1` (centres undefined), the activation was inactive: 0.24%.

Turning to `COc1ccccc1OP(C)(=O)Nc1c(C)cccc1C` (centres undefined), the activation is inactive: 2.1%.

Turning to `CN1CCCCC1COC(=O)C1(O)c2ccccc2CCc2ccccc21` (centres undefined), the activation was inactive: -0.04%.

With `CN(Cc1cccnc1)C(=O)COc1ccc(Cl)c(Cl)c1.O=[N+]([O-])c1cc([N+](=O)[O-])c(O)c([N+](=O)[O-])c1`, the activation is inactive: 1.15%.

For `O=[N+]([O-])c1cc([N+](=O)[O-])c(-n2nnc3ccccc32)c([N+](=O)[O-])c1`, the activation is inactive: 0.56%.

As for `Cc1nc2ccc3ccccc3c2s1.O=[N+]([O-])c1cc([N+](=O)[O-])c(O)c([N+](=O)[O-])c1`, the activation was inactive: 2.47%.

Turning to `O=[N+]([O-])c1cc([N+](=O)[O-])c(-c2cnn(-c3ccccc3)c2)c([N+](=O)[O-])c1`, the activation is inactive: -2.89%.

As to `CCOC(=O)c1ccc(NP(C)(=O)Oc2cc(C)cc(C)c2)cc1` (centres undefined), the activation was inactive: -2.72%.

With `Cc1cc(C)cc(OP(C)(=O)Nc2ccc(C)cc2C)c1` (centres undefined), the activation is inactive: 0.28%.

Consider `COc1ccccc1OP(C)(=O)Nc1cccc(Br)c1` (centres undefined), for which the activation was inactive: -0.82%.

Consider `Cc1ccc(C)c(NP(C)(=O)Oc2ccccc2)c1` (centres undefined), for which the activation is inactive: -0.32%.

Regarding `Cc1cc(C)cc(OP(C)(=O)Nc2ccccn2)c1` (centres undefined), the activation is inactive: 2.85%.

Consider `CP(=O)(Nc1cccc(Br)c1)Oc1ccccc1` (centres undefined), for which the activation is inactive: 2.67%.

For the molecule `O=C(O)c1cccc(Nc2c([N+](=O)[O-])cc([N+](=O)[O-])cc2[N+](=O)[O-])c1`, the activation is inactive: 2.73%.

Regarding `CC1=NCCc2c1[nH]c1ccccc21.O=[N+]([O-])c1cc([N+](=O)[O-])c(O)c([N+](=O)[O-])c1`, the activation is inactive: 3.84%.
